Earlier results, collected in publication PMC1976947.

The chains behind the UniProt entries cited, without tags or fusion partners. Residues count along the entry.
UniProt P26952, 17-331: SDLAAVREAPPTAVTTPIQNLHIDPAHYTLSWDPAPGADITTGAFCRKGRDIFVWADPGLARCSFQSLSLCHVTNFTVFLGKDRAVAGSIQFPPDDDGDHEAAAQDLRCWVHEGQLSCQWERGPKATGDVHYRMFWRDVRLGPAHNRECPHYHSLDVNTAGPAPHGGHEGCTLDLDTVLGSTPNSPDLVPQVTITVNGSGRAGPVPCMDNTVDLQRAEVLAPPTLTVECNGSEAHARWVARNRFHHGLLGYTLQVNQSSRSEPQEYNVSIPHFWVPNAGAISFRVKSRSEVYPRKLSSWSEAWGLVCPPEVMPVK
UniProt P14753, 25-507: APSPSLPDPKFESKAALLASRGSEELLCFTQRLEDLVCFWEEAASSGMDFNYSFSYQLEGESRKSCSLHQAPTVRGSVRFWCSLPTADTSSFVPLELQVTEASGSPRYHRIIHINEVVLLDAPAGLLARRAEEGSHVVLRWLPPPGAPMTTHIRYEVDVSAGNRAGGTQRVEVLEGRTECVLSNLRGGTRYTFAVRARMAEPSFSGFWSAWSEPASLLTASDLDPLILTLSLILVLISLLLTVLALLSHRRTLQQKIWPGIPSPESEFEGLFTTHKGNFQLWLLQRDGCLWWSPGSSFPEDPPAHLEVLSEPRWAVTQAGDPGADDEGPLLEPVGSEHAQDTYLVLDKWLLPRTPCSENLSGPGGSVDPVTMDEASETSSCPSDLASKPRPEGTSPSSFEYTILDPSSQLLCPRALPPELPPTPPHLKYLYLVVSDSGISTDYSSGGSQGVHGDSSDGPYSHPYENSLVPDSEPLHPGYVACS
UniProt P01586, 27-166: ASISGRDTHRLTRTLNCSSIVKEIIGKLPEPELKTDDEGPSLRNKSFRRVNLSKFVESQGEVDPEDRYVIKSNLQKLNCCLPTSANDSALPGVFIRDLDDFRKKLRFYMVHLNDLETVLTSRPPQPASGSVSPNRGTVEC

How the values were obtained:
[1] = target: IL-3 receptor (Mus musculus) (UniProt P26952)
[2] = target: erythropoietin receptor (Mus musculus) (UniProt P14753)

Kd [1] [nM]	Kd [2] [nM]	Substance
0.017	–	Interleukin 3 (from UniProt P01586)
–	5	erythropoietin (from UniProt P01588)
